Experiment [1] has as its system XRCC1 protein in SW948 cells. The experiment in a line: Immunoblot of XRCC1 protein in SW948 cells after cetuximab. The experiment is classed as cell-based, human. As to conditions: cetuximab 5 μg/ml, lysates at 0, 4, 24, 48, 72 h. The procedure: Cell lysates were collected at 0, 4, 24, 48 and 72 h.
Cetuximab was added at time 0 at a concentration of 5 μg/ml. The cells were incubated at 37° C., and cell lysates were collected at each time point. For the detection of XRCC1, 20 μg protein was loaded per lane on a 10% SDS-PAGE. The proteins were separated by electrophoresis and then transferred to a nylon membrane. The blot was probed with anti-XRCC1 (NeoMarkers) followed by anti-mouse-HRP. The blots were developed with chemiluminescence and scanned using UN-SCAN-IT software (FIGS. 7 and 8).
(In western blotting, separated proteins are transferred to a membrane and probed.)

Another experiment relates to SW948CPTH cells. The experiment in a line: Reduction of CPT-11 resistance of SW948CPTH cells by C225 or siXRCC1 (cell proliferation assay). The settings on record: C225 5 μg/ml 24 h prior to CPT-11, p<0.01. It is filed as cell-based, human. The procedure:
The data are the average ±SE of two to four independent experiments performed in quadruplicate. p-values were determined by Student's t-test.
Standard cell proliferation assays were done in 24-well tissue culture plates. […] Following a 24 h incubation at 37° C., the cell culture media from the oligo and siXRCC1 groups were removed; the cells were washed with 1 ml PBS, and culture medium was added to the cells. Serial dilutions of CPT-11 were added to each well in quadruplicate. After a 24 h incubation at 37° C., the culture medium was removed from all groups, the cells washed with PBS and drug-free medium added to the cells.

With C225: cetuximab (IMC-C225), the “XRCC1 protein levels in SW948 cells” value in experiment [1] is on record as “no observable change”; in experiment [1] (listed as Cetuximab), “no change”. Also, the “decrease of CPT-11 IC50 as compared to the untreated group” value in the experiment on SW948CPTH cells is recorded as 26%.

The record behind these values is patent US20080132417A1, “Molecular Basis For The Identification Of Chemotherapy Resistance In Human Tumors And The Treatment Thereof” (THE UAB RESEARCH FOUNDATION, priority 2004, published 2008).
